Earlier results, collected in patent US20210000927A1, “MODULATORS OF COMPLEMENT ACTIVITY” (Ra Pharmaceuticals, Inc., priority 2017, published 2021).

Tested on: patients with PNH
Conditions: treated for 3 years with eculizumab

B1: eculizumab: a C5 inhibitor monoclonal antibody, approved treatment for PNH (antibody, chains of the INN, looked up)
heavy: QVQLVQSGAEVKKPGASVKVSCKASGYIFSNYWIQWVRQAPGQGLEWMGEILPGSGSTEYTENFKDRVTMTRDTSTSTVYMELSSLRSEDTAVYYCARYFFGSSPNWYFDVWGQGTLVTVSSASTKGPSVFPLAPCSRSTSESTAALGCLVKDYFPEPVTVSWNSGALTSGVHTFPAVLQSSGLYSLSSVVTVPSSNFGTQTYTCNVDHKPSNTKVDKTVERKCCVECPPCPAPPVAGPSVFLFPPKPKDTLMISRTPEVTCVVVDVSQEDPEVQFNWYVDGVEVHNAKTKPREEQFNSTYRVVSVLTVLHQDWLNGKEYKCKVSNKGLPSSIEKTISKAKGQPREPQVYTLPPSQEEMTKNQVSLTCLVKGFYPSDIAVEWESNGQPENNYKTTPPVLDSDGSFFLYSRLTVDKSRWQEGNVFSCSVMHEALHNHYTQKSLSLSLG
light: DIQMTQSPSSLSASVGDRVTITCGASENIYGALNWYQQKPGKAPKLLIYGATNLADGVPSRFSGSGSGTDFTLTISSLQPEDFATYYCQNVLNTPLTFGQGTKVEIKRTVAAPSVFIFPPSDEQLKSGTASVVCLLNNFYPREAKVQWKVDNALQSGNSQESVTEQDSKDSTYSLSSTLTLSKADYEKHKVYACEVTHQGLSSPVTKSFNRGEC
patients transfusion-dependent: 20% | patients transfusion-independent: 80%
